Test results published in patent US10357573B2, “Block copolymer conjugate of physiologically active substance” (Nippon Kayaku Kabushiki Kaisha, priority 2015, dated 2019).
Where “and” joins values, the source holds several entries; their conditions need not be identical. Equal values may be shown once. Read-outs that look alike come from different tables or passages of the source.

Tests used:
[1] = Volume average particle diameter by dynamic light scattering; type: physicochemical
Description: Measurement of the volume average particle diameters of the physiologically active substance-conjugated block copolymers of Examples and Comparative Examples was carried out using a ZetaPotential/Particlesizer NICOMP 380 ZLS (device A; temperature: 25° C.) manufactured by Particle Sizing Systems, LLC, or a particle size zeta potential analyzer, ZETASIZER NANO ZS (device B; measurement temperature: 25° C., analysis model: General Purpose (normal resolution), material RI: 1.59) manufactured by Malvern Instruments, Ltd. Regarding the volume average particle diameter measurement sample, a solution obtained by adding ultrapure water to a physiologically active substance-conjugated block copolymer to obtain a concentration of 1 mg/mL or 5 mg/mL, dissolving the block copolymer by irradiating the mixture with ultrasonic waves for 10 minutes under ice cooling, and then filtering the solution through a 0.2-μm membrane filter, was used.

[2] = Light scattering intensity of 1 mg/mL aqueous solution, relative to toluene; type: physicochemical; conditions: for light scattering intensity of a 1 mg/mL aqueous solution: 1 mg/mL in ultrapure water, 25° C., wavelength 632.8 nm; for relative ratio between the light scattering intensity and the light scattering intensity of toluene: 1 mg/mL aqueous solution vs standard toluene solution under the same conditions
Description: Regarding the measurement sample for the scattering intensity measurement, a solution obtained by adding ultrapure water to a physiologically active substance-conjugated block copolymer to obtain a concentration of 1 mg/mL, dissolving the block copolymer by irradiating the mixture with ultrasonic waves for 10 minutes under ice cooling, and then filtering the solution through a 0.2-μm membrane filter, was used.
Toluene (manufactured by Junsei Chemical Co., Ltd., special grade) that was used for the measurement of the light scattering intensity, was used after being filtered three times through a 0.2-μm membrane filter.

[3] = for Number of platelets: 75 mg/kg as converted to Ganetespib, iv once, 3rd day after administration; for prolonged hematotoxicity: 75 mg/kg, 3 days after administration
Description: As a control group, a 5% glucose injection solution was intravenously administered once through the caudal vein.
About 3 μL of an EDTA-2K solution had been added in advance to the syringe, and this solution was sufficiently mixed with the blood thus collected. The resultant solutions were used as analysis samples. The blood samples were subjected to a blood cell analysis using a blood cell analysis apparatus XT-2000iV (Sysmex Corp.).

[4] = 5 mg/kg as converted to BODIPY, mixture iv once, one hour after administration
From the text: (§1) A tumor mass of human pancreatic cancer BxPC3 that had been subcultured by subcutaneous transplantation in a BALB/c nude mouse was cut into a block having a size of about 3 mm on each side, and this block was subcutaneously transplanted on the dorsal side of a nude mouse using a trocar.

[5] = test system: human pancreatic cancer BxPC3; conditions: 5 mg/kg as converted to BODIPY, mixture iv once, one hour after administration
From the text: as §1

[6] = Test Example C-1 intrarenal distribution test; type: in vivo, nude mouse; conditions: 5 mg/kg as converted to 2-(2-aminoethoxy)-9-(diethylamino)-5H-benzo[a]phenoxazin-5-one, iv once, one hour after administration
From the text: as §1, with “trocar. […] One hour after the administration, blood was removed from the mouse under isoflurane anesthesia, frozen embedded slices of the removed tumor and the kidneys were produced, and fluorescence was observed.” for “trocar.”

[7] = test system: human pancreatic cancer BxPC3; experiment: Test Example C-1 intratumor distribution test; type: in vivo, nude mouse; conditions: 5 mg/kg as converted to 2-(2-aminoethoxy)-9-(diethylamino)-5H-benzo[a]phenoxazin-5-one, iv once, one hour after administration
From the text: as §1, with “trocar. […] One hour after the administration, blood was removed from the mouse under isoflurane anesthesia, frozen embedded slices of the removed tumor and the kidneys were produced, and fluorescence was observed.” for “trocar.”

## 4-isopropyl-6-(4-(1-methyl-1H-indol-5-yl)-5-methylene-4,5-dihydro-1H-1,2,4-triazol-3-yl)benzene-1,3-diol Conjugate of polyethylene glycol (2 Kilodaltons)-polyglutamic Acid (6 Polymer) Block Copolymer [Example B-3]
[1]; device A, 5 mg/mL
  volume average particle diameter: 8 nm and 11 nm

## 4-isopropyl-6-(4-(1-methyl-1H-indol-5-yl)-5-methylene-4,5-dihydro-1H-1,2,4-triazol-3-yl)benzene-1,3-diol Conjugate of polyethylene glycol (2 Kilodaltons)-polyglutamic Acid (7.9 Polymer) Block Copolymer [Example B-1]
[1]; device A, 5 mg/mL
  volume average particle diameter: 11 nm
[2]
  light scattering intensity of a 1 mg/mL aqueous solution: 83,228 cps
[3]
  Number of platelets: 54.6 ± 6.6 ×10^4/μL

## 4-isopropyl-6-(4-(1-methyl-1H-indol-5-yl)-5-methylene-4,5-dihydro-1H-1,2,4-triazol-3-yl)benzene-1,3-diol Conjugate of polyethylene glycol (2 Kilodaltons)-polyglutamic Acid (12 Polymer) Block Copolymer [Example B-5]
[1]; device B, 5 mg/mL
  volume average particle diameter: 14 nm
[2]
  relative ratio between the light scattering intensity and the light scattering intensity of toluene: 6.8 times and 11.9 times
  light scattering intensity of a 1 mg/mL aqueous solution: 50,425 cps

## 4-isopropyl-6-(4-(1-methyl-1H-indol-5-yl)-5-methylene-4,5-dihydro-1H-1,2,4-triazol-3-yl)benzene-1,3-diol Conjugate of polyethylene glycol (5 Kilodaltons)-polyglutamic Acid (10 Polymer) Block Copolymer [Example B-6]
[1]; device A, 5 mg/mL
  volume average particle diameter: 12 nm
[2]
  light scattering intensity of a 1 mg/mL aqueous solution: 88,115 cps

## 4-isopropyl-6-(4-(1-methyl-1H-indol-5-yl)-5-methylene-4,5-dihydro-1H-1,2,4-triazol-3-yl)benzene-1,3-diol Conjugate of polyethylene glycol (12 Kilodaltons)-polyglutamic Acid (25 Polymer) Block Copolymer [Comparative Example B-1, reference compound]
[1]; device A, 1 mg/mL
  volume average particle diameter: 25 nm
[2]
  light scattering intensity of a 1 mg/mL aqueous solution: 294,722 cps
[3]
  Number of platelets: 9.8 ± 3.5 ×10^4/μL
  prolonged hematotoxicity: prolonged hematotoxicity was recognized

## 4-isopropyl-6-(4-(1-methyl-1H-indol-5-yl)-5-methylene-4,5-dihydro-1H-1,2,4-triazol-3-yl)benzene-1,3-diol and BODIPY-FL Conjugate of polyethylene glycol (2 Kilodaltons)-polyglutamic Acid (7.9 Polymer) Block Copolymer [Example B-2]
[4]
  tissue distribution in kidney slices (fluorescence): fluorescence was observed in the blood vessels and in the renal tubules
[5]
  tissue distribution in tumor slices (fluorescence): accumulated in the tumor tissue and penetrated into deep parts of the tumor tissue
[3]
  prolonged hematotoxicity: prolonged hematotoxicity occurred to a low extent

## 4-isopropyl-6-(4-(1-methyl-1H-indol-5-yl)-5-methylene-4,5-dihydro-1H-1,2,4-triazol-3-yl)benzene-1,3-diol and BODIPY-TR Conjugate of polyethylene glycol (12 Kilodaltons)-polyglutamic Acid (25 Polymer) Block Copolymer [Comparative Example B-2, reference compound]
[4]
  tissue distribution in kidney slices (fluorescence): fluorescence was not recognized in areas other than in the blood vessels
[5]
  tissue distribution in tumor slices (fluorescence): did not deliver the drug to the whole area of the tumor tissue

## Cabazitaxel (CBZ) Conjugate of polyethylene glycol (2 Kilodaltons)-α,β-polyaspartic Acid (12.5 Polymer) Block Copolymer [Example C-4]
[1]; device A, 1 mg/mL
  volume average particle diameter: 12 nm
[2]
  relative ratio between the light scattering intensity and the light scattering intensity of toluene: 24.7 times
  light scattering intensity of a 1 mg/mL aqueous solution: 176,886 cps

## Cabazitaxel (CBZ) Conjugate of polyethylene glycol (5 Kilodaltons)-α-polyaspartic Acid (20.0 Polymer) Block Copolymer [Example C-2]
[1]; device B, 1 mg/mL
  volume average particle diameter: 10 nm
[2]
  relative ratio between the light scattering intensity and the light scattering intensity of toluene: 2.5 times
  light scattering intensity of a 1 mg/mL aqueous solution: 10,382 cps

## Cabazitaxel (CBZ) Conjugate of polyethylene glycol (12 Kilodaltons)-α,β-polyaspartic Acid (23.8 Polymer) Block Copolymer [Comparative Example C-1, reference compound]
[1]; device A, 1 mg/mL
  volume average particle diameter: 22 nm
[2]
  relative ratio between the light scattering intensity and the light scattering intensity of toluene: 5.7 times
  light scattering intensity of a 1 mg/mL aqueous solution: 24,804 cps

## Cabazitaxel (CBZ) and 2-(2-aminoethoxy)-9-(diethylamino)-5H-benzo[a]phenoxazin-5-one Conjugate of polyethylene glycol (12 Kilodaltons)-α,β-polyaspartic Acid (23.8 Polymer) Block Copolymer [Comparative Example C-2]
[2]
  relative ratio between the light scattering intensity and the light scattering intensity of toluene: twice or more
[6]
  tissue distribution in kidney slices (fluorescence): fluorescence was not recognized in areas other than the blood vessels
[7]
  tissue distribution in tumor slices (fluorescence): migration and accumulation in the tumor tissue was low

## Cabazitaxel (CBZ) and n-butylamine Conjugate of polyethylene glycol (2 Kilodaltons)-α,β-polyaspartic Acid (12.5 Polymer) Block Copolymer [Example C-1]
[1]; device A, 1 mg/mL
  volume average particle diameter: 6.3 nm
[2]
  relative ratio between the light scattering intensity and the light scattering intensity of toluene: 3.0 times
  light scattering intensity of a 1 mg/mL aqueous solution: 13,018 cps

## Cabazitaxel (CBZ)/n-butylamine/2-(2-aminoethoxy)-9-(diethylamino)-5H-benzo[a]phenoxazin-5-one Conjugate of polyethylene glycol (2 Kilodaltons)-α,β-polyaspartic Acid (12.5 Polymer) Block Copolymer [Example C-3]
[6]
  tissue distribution in kidney slices (fluorescence): fluorescence was observed in the renal tubules
[7]
  tissue distribution in tumor slices (fluorescence): capable of penetrating into deep parts of the tumor tissue

## docetaxel (DTX) and 4-phenylbutylamine Conjugate of polyethylene glycol (2 kilodaltons)-α,β-polyaspartic Acid (12.5 Polymer) Block Copolymer [Example C-5]
[2]
  relative ratio between the light scattering intensity and the light scattering intensity of toluene: 22.7 times
  light scattering intensity of a 1 mg/mL aqueous solution: 162,126 cps
